In US20140221499A1, “NOVEL RODENT CONTROL AGENTS AND USES THEREOF” (priority 2011, published 2014):

System: mouse olfactory sensory neurons
Assay: Confocal calcium imaging of olfactory sensory neurons in tissue slices
Type: cell-based
Method: The mammalian olfactory system encodes odor identity using combinations of olfactory receptors (11). […] Here, we used a confocal imaging strategy to record cytosolic calcium transients of single sensory neurons in real time. Viability of analyzed neurons was determined after odor exposures by KCl-induced depolarization.
Confocal calcium imaging of olfactory sensory neurons in tissue slices. Recordings were performed as described (Spehr M, et al. (2006) Essential role of the main olfactory system in social recognition of major histocompatibility complex peptide ligands. J Neurosci 26(7):1961-1970) with the following modifications. For calcium sensitive dye loading, slices of olfactory epithelium were incubated (30 min, 4° C.) in HEPES solution (in mM: 145 NaCl, 5 KCl, 1 CaCl2, 1 MgCl2, 10 HEPES; pH=7.3) containing Fluo-4/AM (2 μM; Molecular Probes). […] Changes in cytosolic calcium were monitored over time at 1.0 Hz frame rate. […] All cells in a given field of view were marked as individual regions of interest (ROIs), and the relative fluorescence intensity for each ROI was calculated and processed as a function of time.

Structure (SMILES): NCCc1ccccc1 [2-phenylethylamine]
- carnivore odor-selective neurons that responded to 2-phenylethylamine (neurons activated by 100:1 lion urine): 10/18
- carnivore odor-selective neurons that responded to 2-phenylethylamine (neurons activated by 10,000:1 lion urine): 13/21
